Test results published in patent US4324801A, “Phenylguanidine acetylsalicylate compounds, process for production thereof, and pharmaceutical composition thereof” (Banyu Pharmaceutical Co. Ltd., priority 1981, dated 1982).

Assays:
[1] = tested on: rats; assay: Antipyretic activity (peptone-induced rise in rectal temperature); type: in vivo, rat (male); conditions: against the control, oral, 200 mg/kg, rat; 5% peponte s.c. (0.5 ml/100 g)
[2] = in vivo; conditions: mouse, po

Q: With `Cc1cccc(Nc2ccccc2C(=O)O)c1C` [Mefenamic acid, reference compound] as the molecule, how does the Inhibiting ratio [1] read?
A: 79.0%

Q: What about the LD50 [2] of the same molecule?
A: 800 mg/kg
